# scFv variants of Ab-14 (light chain) against a SARS-CoV-2 spike peptide

Target peptide (SARS-CoV-2 spike, HR2 region): PDVDLGDISGINAS

The variants keep the heavy chain, the linker and the frameworks of Ab-14 (scFv order VH, a (GGGGS)3 linker, VL).
VH: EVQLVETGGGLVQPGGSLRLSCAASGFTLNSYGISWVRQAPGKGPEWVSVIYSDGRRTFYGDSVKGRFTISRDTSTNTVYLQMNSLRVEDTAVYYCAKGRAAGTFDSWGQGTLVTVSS
VL: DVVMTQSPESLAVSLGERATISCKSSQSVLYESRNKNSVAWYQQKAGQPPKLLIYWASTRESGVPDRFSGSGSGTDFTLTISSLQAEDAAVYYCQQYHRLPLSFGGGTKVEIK

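The parent was found by panning a naive human phage display library on the peptide. The variants were designed computationally from a first round of random CDR variants and then made and measured. Several design methods are mixed in this list. The scFvs were displayed on barcoded MATa yeast, the peptide on MATalpha yeast. After mating in shaken culture at 30 °C for 16 h, diploids were selected and their barcode pairs sequenced. Read counts were normalised to the haploid input and turned into Kd by a linear fit to BCL2-family pairs of known affinity, for each replicate. There are six technical replicates.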

Each variant is given by its three light chain CDRs, as the data file delimits them; those of the parent are KSSQSVLYESRNKNSVA, WASTRES, QQYHRLPLS. Kd is apparent (estimated from mating counts) and averaged on the log scale over replicates with a signal. Smaller is tighter. "no signal" marks a missing value. The strain was present, yet no cells mated with the target were sequenced in any replicate, which points to weak or no binding.

Kd (apparent)	seen in	control signals	CDR-L1	CDR-L2	CDR-L3
21 µM	1 of 6	0 of 18	KSSQSVLYESRNKNSVA	WASTHES	QQYHRLPLS
22 nM	6 of 6	0 of 18	QLGKNQSGDTLSQNAIA	HAALLVD	QQYFQLPLL
2.7 nM	6 of 6	1 of 18	KIDQSELEESRNKNSVA	NATVREY	QQYHRLPLS
120 nM	1 of 6	0 of 18	HSSPSVLYESRNKNSVA	NASTRES	QQVHRLPLS
47 nM	1 of 6	0 of 18	KSSQSVLYESRNKNSVA	WSSTRES	QQYHRLPLR
no signal	0 of 6	0 of 18	KLSQSVLYESRNKVSVA	WADTRES	PQYHRTPLS
490 pM	6 of 6	0 of 18	KFEQSFLYESRNKNSVA	NASQRES	QQYHRLPLS
600 pM	6 of 6	0 of 18	ILQQSMWYESRNKNSVA	DASVRES	QQYHRLPLS
no signal	0 of 6	0 of 18	KSSPSVGYESRNKNSVA	WASTRHS	FQYHRLPLS
230 nM	6 of 6	1 of 18	MISQMYNMGQFAINSVA	QASQRNE	QQYDRLPLT
520 pM	6 of 6	0 of 18	KLSEDALYESRNKNSVA	NASTREV	QQYHRLPLS
49 nM	6 of 6	0 of 18	IISGSMHMESRNKNSVA	NAETREY	QHYDRLPLS
900 pM	6 of 6	1 of 18	KVSQSELYESRNKNSVA	NASTRES	QQYHRLPLV
22 nM	6 of 6	0 of 18	KSSQLELYESRNKNSVA	EASQRSS	QQYQRLPLS
77 nM	4 of 6	0 of 18	MLSEVLHMLGAKKNSIA	DLVLRAN	QQYHRLPLM
92 nM	4 of 6	0 of 18	ILSQSVLMGMHTKNSVA	QATMRFN	QQYHRLPLM
no signal	0 of 6	0 of 18	KSSNSVLYESRNKYQVA	WASTRES	QQDHRLPLS
290 pM	6 of 6	0 of 18	KCSQSLLYESRNKNSVA	EASTRES	QQYHRLPLS
530 pM	6 of 6	1 of 18	KWSQLVLGEDRNKNSVA	NASQREE	QQYHRLPLS
780 pM	6 of 6	2 of 18	KLEQSHLYESRNKNSVA	NASQRLS	QQYHRLPLS
46 nM	6 of 6	1 of 18	KISMLINQTFESGNNVA	EMATREN	QQYHRLPLS
600 pM	6 of 6	1 of 18	KSSQSQLYESRNKNSVA	NASTRES	QQYHRLPLS
4.1 nM	12 of 12	2 of 36	KFSQSYLYESRNKNSVA	GASTRES	QQYHRLPLS
no signal	0 of 6	0 of 18	KSSQSTLYEFGESNSVA	WASTRES	QQMHRLPLS
3.4 nM	6 of 6	0 of 18	LIKGMVDGQYYWQNNIA	NSEERDR	QQYNHLPLS
2.6 nM	6 of 6	0 of 18	KLTMITGLEKVSTNNVA	EMETREE	QQYNRLPLS
13 nM	6 of 6	0 of 18	TISGLIMMPSRAHNSVA	NTSTRYQ	QQYHRLPLS
1.4 nM	6 of 6	1 of 18	KVSPSHLYWSRNKNQVA	QASTRET	QQYHRLPLS
2.8 nM	6 of 6	4 of 18	KMSQSVDLESRNDNAVA	MASTRMD	QQYHRLPLS
1.0 nM	6 of 6	2 of 18	HLYQSELYESRMKNSVA	NASTRLS	QQYHRLPLS
470 nM	2 of 6	0 of 18	RIQMQFTWPGNARQNVA	EIQTAID	QQYAHLPLS
790 pM	6 of 6	1 of 18	KSSQSQSYESENKNSVA	DASTRES	QQYHRLPLS
1.1 nM	6 of 6	0 of 18	KLEQSGGYEQRNSNSVA	EASTRED	QQYHRLPLS
27 nM	6 of 6	1 of 18	HMSQVTMYGYWNYNSVA	QTSTREE	QQYDRLPLS
970 pM	6 of 6	0 of 18	KLSQGWLYESRNCNSVA	NASQREE	QQYHRLPLS
2.7 nM	6 of 6	0 of 18	NLVGRVPDMYQGRNAIA	DMHCRAG	QQYERLPLA
990 pM	6 of 6	1 of 18	KWSFLQLGESRNKNSVA	DASTRES	QQYHRLPLS
770 pM	6 of 6	0 of 18	KMAQGWEYESRNKNSVA	NASQRES	QQYHRLPLS
150 nM	5 of 6	1 of 18	FLTYASDQTGLQGNAIA	QVNLKEN	QQYMRLPLA
2.3 nM	6 of 6	0 of 18	KVEFSVLYESRNKNSVA	QASTREK	QQYHRLPLS
310 nM	2 of 6	0 of 18	KSSDSVLYESRRKNSVA	WASTRES	QQYSRLPLS
82 nM	6 of 6	0 of 18	HITYGMMVHGRHSKSIA	QAETRAK	QQYDRLPLA
2.0 nM	6 of 6	0 of 18	KLSQSVLYESRNKNSVA	EASTRCS	QQYHRLPLS
9.7 nM	6 of 6	0 of 18	MIAHAPLSINQRMNSVA	NGAEAVI	QQYDRLPLA
750 pM	6 of 6	3 of 18	KLEQSVLYESRNKNSVA	NASQREV	QQYHRLPLS
47 nM	5 of 6	0 of 18	FLHGQLEAGQKNWSAIA	ENSIRVN	QQYNHLPLL
450 nM	2 of 6	0 of 18	KSQQSVLQESPQGNSVA	WASTRES	QQYHRLPES
3.4 nM	6 of 6	0 of 18	HISSLTLQGMRQRNSVA	QMTTREN	QQYDHLPLS
2.6 nM	6 of 6	3 of 18	SMHPFDKAIGKGTQNIA	HVSVRAS	QQYARLPLV
3.9 nM	6 of 6	0 of 18	KISQVFMMTGKLKNSVA	NALTRVQ	QQYHRLPLS
1.2 nM	6 of 6	2 of 18	KQQFSSGGESRNKNSVA	EASTRCS	QQYHRLPLS
1.5 nM	6 of 6	0 of 18	KIQQSVLYESLNQNSVA	EASTRLS	QQYHRLPLS
920 pM	6 of 6	2 of 18	KVSQSVLGEQRAQNSVA	EASKRES	QQYHRLPLS
2.3 nM	6 of 6	3 of 18	RLLDWADGWTMKERNIA	DEDIRGA	QQYSHLPLA
740 pM	6 of 6	1 of 18	KSPQSWFYESSNANSVA	AASTRES	QQYHRLPLS
28 nM	6 of 6	2 of 18	MISDLTYLGLRNVNSVA	DLSTRGN	QQYDRLPLS
16 nM	6 of 6	1 of 18	MVSQLMLWGLHAKNSIA	EAQTRIN	QQYDRLPLE
5.0 nM	6 of 6	4 of 18	KYQQQVLTESRNKNSVA	NASTRES	QQYHQLPLS
70 nM	5 of 6	0 of 18	NFYMSAAEFVNEDSSIA	DAEISYD	QQYHRLPLV
450 pM	6 of 6	0 of 18	KLSQSELYEDRNTNSVA	NASQRCS	QQYHRLPLS

Top 7 of the variants detected in all replicates, tightest first:

CDR-L1	CDR-L2	CDR-L3	Kd (apparent)	seen in	control signals
KCSQSLLYESRNKNSVA	EASTRES	QQYHRLPLS	290 pM	6 of 6	0 of 18
KLSQSELYEDRNTNSVA	NASQRCS	QQYHRLPLS	450 pM	6 of 6	0 of 18
KFEQSFLYESRNKNSVA	NASQRES	QQYHRLPLS	490 pM	6 of 6	0 of 18
KLSEDALYESRNKNSVA	NASTREV	QQYHRLPLS	520 pM	6 of 6	0 of 18
KWSQLVLGEDRNKNSVA	NASQREE	QQYHRLPLS	530 pM	6 of 6	1 of 18
KSSQSQLYESRNKNSVA	NASTRES	QQYHRLPLS	600 pM	6 of 6	1 of 18
ILQQSMWYESRNKNSVA	DASVRES	QQYHRLPLS	600 pM	6 of 6	0 of 18

The authors averaged sequences with at least three values out of six and counted those with two or fewer as poor binders. Background: pairings of all light chain designs with three empty control strains gave a value in 4% of cases (median 430 nM, 5th percentile 38 nM). Values in that range, when seen in few replicates, are hard to tell from nonspecific mating. Also given: how often the same scFv was detected with the empty control strains. Where one sequence has several entries in the source, the replicates are pooled. A sequence measured in both rounds can read differently, since the two assays cover different ranges.

From the AlphaSeq antibody data of Li et al. 2023 (doi:10.1038/s41467-023-39022-2), copy in the FLAb collection.